{"source": "patent US12616751B2", "about": "“Photosensitizing antibody-fluorophore conjugates” (The USA, as represented by the Secretary, Department of …, priority 2010, dated 2026)", "key": {"3T3/HER2+ cells [1]": {"tested_on": "3T3/HER2+ cells", "experiment": "Photoimmunotherapy (PIT) phototoxicity, LIVE/DEAD assay", "type": "cell-based", "experimental": "Cells were grown in RPMI 1640 supplemented with 10% fetal bovine serum and 1% penicillin/streptomycin in tissue culture flasks in a humidified incubator at 37° C. in an atmosphere of 95% air and 5% carbon dioxide.\nCulture medium was replaced with phenol red-free medium after washing with phosphate buffered saline (PBS)."}, "Balb/3T3/DsRed cells": {"tested_on": "Balb/3T3/DsRed cells", "experiment": "PIT and microscopy in receptor-negative control cells", "type": "cell-based", "experimental": "HER2 gene-transfected NIH3T3 (3T3/HER2+) cells were used for target photodynamic therapy (PDT). As a control, Balb/3T3 cells which express DsRed fluorescent protein but not HER2 (Balb/3T3/DsRed) were employed. Cells were grown in RPMI 1640 supplemented with 10% fetal bovine serum and 1% penicillin/streptomycin in tissue culture flasks in a humidified incubator at 37° C. in an atmosphere of 95% air and 5% carbon dioxide.\nEGFR-expressing A431 cells were used as the target HER1+ cells. […] Cells were grown in RPMI 1640 supplemented with 10% fetal bovine serum and 1% penicillin/streptomycin in tissue culture flasks in a humidified incubator at 37° C. in an atmosphere of 95% air and 5% carbon dioxide. A431 or Balb/3T3/DsRed cells were seeded on cover glass-bottomed dishes and incubated for 24 hours. Pan-IR700 was added to the culture medium at 10 μg/mL and incubated either for 1 hour on ice or 6 hours at 37° C., then cells were washed with PBS. Culture medium was replaced with phenol red-free medium after washing with phosphate buffered saline (PBS)."}, "3T3/HER2 lung metastases": {"tested_on": "3T3/HER2 lung metastases", "experiment": "PIT of lung metastases"}, "3T3/HER2+ cells [2]": {"tested_on": "3T3/HER2+ cells", "experiment": "Fluorescence microscopy, subcellular localization of IR700", "type": "cell-based", "details": "after 1 h and 6 h incubation; power density 2.2 mW cm-2", "experimental": "Fluorescence microscopy was performed with a BX51 or IX81 microscope (Olympus America, Melville, N.Y.). The filter was set to detect IR700 and consisted of a 590-650 nm excitation filter, and a 665-740 nm band pass emission filter. To detect DsRed protein, a filter set consisting of a 480-550 nm excitation filter, and a 590 nm long pass emission filter was employed.\nFluorescence microscopy was performed to test the subcellular localization of IR700 in 3T3/HER2+ cells. Cells were seeded on cover glass-bottomed dishes and incubated for 24 hours."}, "3T3/HER2 cells": {"tested_on": "3T3/HER2 cells", "experiment": "Long term viability/growth after PIT (microscopy, trypan blue)", "type": "cell-based"}, "Balb/3T3 tumors": {"tested_on": "Balb/3T3 tumors", "experiment": "In vivo imaging and PIT of Balb/3T3 tumor xenografts", "design": "species or system mice", "details": "mouse"}, "SKOV3 cells": {"tested_on": "SKOV3 cells", "experiment": "In vitro PIT, microscopy before and after", "type": "cell-based", "experimental": "(§1) For photoimmunotherapy (PIT), cells were seeded on 35 mm cover glass-bottomed dishes and incubated 24 hours. […] Culture medium was replaced with phenol red-free medium after washing with phosphate buffered saline (PBS). Cells were irradiated with light at 670 nm to 690 nm using a red light emitting diode (LED; FluorVivo; INDEC Systems Inc., Capitola, Calif.) with a power density of 2.6 mW cm^−2 as measured with optical power meter (PM 100, Thorlabs, Newton, N.J.). Cell viability was assessed 1 hour after treatment with LIVE/DEAD® Fixable Green Dead Cell Stain Kit (Invitrogen). After the treatment, cells were trypsinized and washed with PBS. Green fluorescent reactive dye was added in the cell suspension and incubated at room temperature for 30 minutes. Cells were then analyzed on flow cytometer (FACS Calibur, BD BioSciences, San Jose, Calif.).\n(§2) This example describes additional results showing that the disclosed antibody-IR700 compounds selectively kill cells that express the appropriate protein. The photoimmunotherapy (PIT) methods are described in Example 2."}, "MDA-MB-453 cells": {"tested_on": "MDA-MB-453 cells", "experiment": "In vitro PIT, microscopy before and after", "type": "cell-based", "experimental": "as §1, §2"}, "SHAW cells": {"tested_on": "SHAW cells", "experiment": "In vitro PIT, microscopy before and after", "type": "cell-based", "experimental": "as §1, §2"}, "3T3/HER2+ tumors": {"tested_on": "3T3/HER2+ tumors", "experiment": "In vivo imaging and PIT of 3T3/HER2+ tumor xenografts"}, "3T3/HER2 tumors": {"tested_on": "3T3/HER2 tumors", "experiment": "In vivo delivery of Tra-IR800 after Tra-IR700 PIT", "design": "species or system mice", "details": "50 J/cm2 to right side tumor; agent 1 h after PIT", "text": "In vivo fluorescence imaging. Five days after injection of two million A431 or 3T3-HER2 cells in right and left dorsums, and seven days after MDA-MB-468 cells injection in mammary pads, tumor volumes of approximately 75 mm^3 were selected. Signals of IR700 and IR800 was detected with a fluorescence camera (Pearl Imager, LI-COR Biosciences) using the 700 and 800 nm fluorescence channel Qdot800 was detected with Maestro in vivo Imaging System (CRi) using a band-pass filter, which ranges between 575 to 605 nm (excitation) and a long-pass NIR filter over 800 nm (emission). Fluorescence images of daunorubicin were also obtained with Maestro using a band-pass filter from 503 to 555 nm (excitation) and a long-pass green filter over 580 nm (emission). The tunable emission filter was automatically stepped in 10 nm increments from 650 to 950 nm and from 500 to 800 nm for the NIR and green filter sets at constant exposure. The spectral fluorescence images consist of autofluorescence spectra and the spectra from Qdot800 and daunorubicin, which were then unmixed, based on their spectral patterns using commercial software (Maestro software; CRi). Mice were sacrificed with carbon dioxide immediately after in vivo imaging. The tumors were excised, and frozen or paraffin-embedded for histological study and fluorescence microscopy study after ex vivo imaging. […]"}}, "data": [{"substance": "Tra-IR700: Trastuzumab (humanized anti-HER2 mAb) conjugated to IRDye 700DX; about 3 IR700 per antibody", "values": [{"measurement": "phototoxic effect without washing cells prior to irradiation", "setting": "3T3/HER2+ cells [1]", "value": "did not influence the phototoxic effect"}, {"measurement": "phototoxicity with excess unconjugated trastuzumab", "setting": "3T3/HER2+ cells [1]", "value": "dose-dependently blocked"}, {"measurement": "phototoxicity, 1 h versus 6 h incubation", "setting": "3T3/HER2+ cells [1]", "value": "no significant difference in phototoxicity"}, {"measurement": "cell killing by PIT (microscopy)", "setting": "3T3/HER2+ cells [1]; FIG. 8", "value": "specifically killed"}, {"measurement": "cell death versus light dose", "setting": "3T3/HER2+ cells [1]; LIVE/DEAD, 1 hour after PIT", "value": "light dose dependent"}, {"measurement": "percentage of cell death in presence of sodium azide", "setting": "3T3/HER2+ cells [1]; NaN3 in medium during irradiation", "value": "partially decreased"}, {"measurement": "phototoxicity in co-culture", "setting": "Balb/3T3/DsRed cells; 1.0 J cm^−2 after 1 or 6 hours incubation at 37° C.", "value": "did not show phototoxicity upon irradiation"}, {"measurement": "long term growth inhibition", "setting": "Balb/3T3/DsRed cells; Balb/3T3 (HER2 negative) cells exposed to light", "value": "long term growth inhibition was not observed"}, {"measurement": "lung metastases", "setting": "3T3/HER2 lung metastases; 100 μg i.v., 30 J/cm2 NIR light 2 days later", "value": "lung metastases cleared"}, {"measurement": "overall survival time", "setting": "3T3/HER2 lung metastases; […]", "value": "increase in the overall survival time"}, {"measurement": "cell changes induced by excitation light", "setting": "3T3/HER2+ cells [2]", "value": "cellular swelling, bleb formation, and rupture of vesicles representing necrotic cell death"}, {"measurement": "viability, trypan blue dye exclusion", "setting": "3T3/HER2 cells; PDT 2.0 J cm^−2, versus conjugate only, PDT only, no treatment", "value": "significantly reduced viability"}, {"measurement": "therapeutic effect of irradiation", "setting": "Balb/3T3 tumors", "value": "did not show significant therapeutic effect"}, {"measurement": "cell killing by PIT (microscopy)", "setting": "SKOV3 cells", "value": "specifically killed"}, {"measurement": "cell killing by PIT (microscopy)", "setting": "MDA-MB-453 cells", "value": "specifically killed"}, {"measurement": "cell killing by PIT (microscopy)", "setting": "SHAW cells", "value": "specifically killed"}, {"measurement": "other localization of IR700 (biodistribution)", "setting": "3T3/HER2+ tumors; 300 μg", "value": "No other specific localization of IR700 was found except for the bladder accumulation on day 1"}, {"measurement": "tumor growth", "setting": "3T3/HER2+ tumors; 300 μg i.v., 50 J cm^−2, day 4, 7, 10 and 14 after treatment", "value": "significant tumor growth inhibition"}, {"measurement": "tumor shrinkage of irradiated tumor", "setting": "3T3/HER2+ tumors; 300 μg, NIR light on day 1", "value": "Tumor shrinkage was confirmed on day 7"}, {"measurement": "lethal side effects", "setting": "3T3/HER2+ tumors; during or after the treatment", "value": "no lethal side effects were found"}]}, {"substance": "Tra-IR800: trastuzumab conjugated to IRDye 800CW", "values": [{"measurement": "tumor shown in dynamic images", "setting": "3T3/HER2 tumors", "value": "only the right sided tumor was clearly shown up within 10 min"}]}, {"substance": "trastuzumab: recombinant humanized monoclonal antibody against extracellular domain of HER2 [reference compound]", "values": [{"measurement": "growth with unconjugated antibody", "setting": "3T3/HER2 cells; dose used", "value": "did not reduce growth"}]}]}
